From ChEMBL document CHEMBL1123773, “The role of solvent-accessible surface area in determining partition coefficients” (J Med Chem, 1987)

Tests used:
[1] = octanol/water
[2] = octanol/water; remark: listed apart in the source
[3] = octanol/water; remark: listed apart in the source

logP [1]: -1.52 | logP [2]: 0.88 | logP [3]: -3.74
Structure (SMILES): Nc1ccc(C(=O)O)cc1 [AMINOBENZOIC ACID]
